{"source": "patent US20240415820A1", "about": "“COMBINATIONS FOR RETAINING FOLLICLES RESERVE” (SHEBA IMPACT LTD., priority 2021, published 2024)", "system": "primordial follicles (PMF)", "assay": "Ex vivo culture of neonatal mouse ovaries with PM, PMF counting (H&E)", "format": "cell-based", "conditions": "ex vivo ovaries of 12 days mice"}
{"smiles": "NP(=O)(O)N(CCCl)CCCl", "values": [{"measurement": "PMFs on day 7 of culture", "setting": "PM 4 hours, with or without 400 nM Tem, FIG. 2A", "result": "75±5.1"}, {"measurement": "PMFs on day 7 of culture", "setting": "PM, with or without rAMH, FIG. 2B", "result": "86±8.4"}]}
